Experimental findings from US12648917B2 (University of Florida Research Foundation, Incorporated, priority 2017, dated 2026) are described below.

For this test, the system named is glial fibrillary acidic protein (GFAP). Description: IHC staining for GFAP (neuroinflammation, reactive gliosis) in C9-BAC mice. Format: in vivo, mouse. Conditions: C9 metformin treated animals vs non-transgenic (NT) animals.

As to `CN(C)C(=N)NC(=N)N` [metformin], the “GFAP staining in C9 treated animals relative to NT animals” value is given as “comparable to NT animals”.
